Test results as given in patent US8530494B2, “Buprenophine analogs” (dated 2013).

Columns and labels:
μ-opioid receptor [1] = target: T1, μ-opioid receptor (Homo sapiens (Human), UniProt P35372); experiment: μ-opioid receptor radioligand dose-displacement binding assay ([3H]-diprenorphine); details: read-out: Ki μ
δ-opioid receptor = δ-opioid receptor (Homo sapiens (Human), UniProt P41143); experiment: δ-opioid receptor radioligand dose-displacement assay ([3H]-Naltrindole); details: read-out: Ki δ
kappa opioid receptor [2] = target: T2, kappa opioid receptor (Homo sapiens (Human), UniProt P41145); experiment: κ-opioid receptor functional [35S]GTPγS binding assay
delta opioid receptor = delta opioid receptor (Homo sapiens (Human), UniProt P41143); experiment: δ-opioid receptor functional [35S]GTPγS binding assay
kappa opioid receptor [3] = target: T2, kappa opioid receptor; experiment: κ-opioid receptor radioligand dose displacement assay ([3H]-U69,593); details: read-out: Ki κ
[4] = target: human opioid receptor-like receptor (ORL-1) (Homo sapiens (Human), UniProt P41146); experiment: ORL-1 receptor radioligand binding assay ([3H]-nociceptin)
μ-opioid receptor [5] = target: T1, μ-opioid receptor; experiment: μ-opioid receptor [35S]GTPγS functional assay

With C#CCOC[C@H]1C[C@@]23CC[C@]1(OC)[C@@H]1Oc4c(OC)ccc5c4[C@@]12CCN(CC1CC1)[C@@H]3C5 the Ki (μ-opioid receptor [1]) was 43 nM, the Ki (δ-opioid receptor) was 221 nM and the EC50 (kappa opioid receptor [2]; read-out: GTPγS κ EC50) was 62 nM. The “GTPγS κ Emax” value (kappa opioid receptor [2]; relative to U69,593) was 98%, the EC50 (delta opioid receptor; read-out: GTPγS δ EC50) was 455 nM and the “GTPγS δ Emax” value (delta opioid receptor; relative to met-enkephalin) was 66%. For the same compound, the Ki (kappa opioid receptor [3]) was 1.3 nM, the “Ki ORL-1” value [4] was “Inactive” and the EC50 (μ-opioid receptor [5]; read-out: GTPγS μ EC50) was 3710 nM. For the same compound, the “GTPγS μ Emax” value (μ-opioid receptor [5]; relative to DAMGO) was 19%.
